In patent publication US7935366B2 (priority 2006, dated 2011):
Some compounds may have been tested in ways that are not shown here.

Columns and labels:
DNA damage = experiment: Alkaline comet assay; conditions: FIG. 3
[1] = Whole body retention of ^137Cs, CKF vs Prussian Blue; format: in vivo
[2] = tested on: rat bone marrow erythrocytes; experiment: Micronuclei formation in rat bone marrow erythrocytes (geno-toxicity); format: in vivo; conditions: FIG. 2
Text: […]. The geno-toxicity assessment of [CaK2Fe(CN)6] and Prussian Blue for the formation of micronuclei (i.e. part of parent nucleus, which is left behind in the cytoplasm as a daughter nuclei, due to damage to chromosomes during cell division). […] It has also been observed that five and ten times of this dose induces marginal increase in the formation of micronuclei.

[3] = Percent binding capacity of *Cs at different pH; format: physicochemical

Substance: Calcium Potassium Ferrocyanide
- DNA damage in alkaline comet assay (DNA damage): do not induce any apparent DNA damage
- effectiveness in *Cs decorporation relative to Prussian Blue ([1]; FIG. 1, whole body retention of *Cs, used solely): twice as effective as Prussian Blue
- WHOLE BODY RETENTION - ^137Cs ([1]; day 0): 100 percent administered dose
- WHOLE BODY RETENTION - ^137Cs ([1]; day 1): 55 ± 9 percent administered dose
- WHOLE BODY RETENTION - ^137Cs ([1]; day 4): 16 ± 7 percent administered dose
- WHOLE BODY RETENTION - ^137Cs ([1]; day 8): 10 ± 4 percent administered dose
- WHOLE BODY RETENTION - ^137Cs ([1]; day 12): 7 ± 3 percent administered dose
- WHOLE BODY RETENTION - ^137Cs ([1]; day 16): 5 ± 2 percent administered dose
- WHOLE BODY RETENTION - ^137Cs ([1]; day 20): 3 ± 1 percent administered dose
- WHOLE BODY RETENTION - ^137Cs ([1]; day 24): 3 ± 1 percent administered dose
- WHOLE BODY RETENTION - ^137Cs ([1]; day 28): 2 ± 1 percent administered dose
- speed of removing *Cs from in vivo system ([1]; experimental animals): considerably faster than Prussian blue
- micronuclei formation, means±SE versus control ([2]; all the tested doses): not significantly different from control
- geno-toxicity, micronuclei formation ([2]; dose of 5 mg/100 g BW (equivalent to 3.5 g/d/70 Kg adult)): did not induce any toxicity
- geno-toxicity, micronuclei formation ([2]; five and ten times the dose of 5 mg/100 g BW): marginal increase in the formation of micronuclei
- binding with *Cs ([3]; FIG. 4, neutral pH): firm binding
- PERCENT BINDING CAPACITY of *Cs ([3]; pH 2): 99 ± 0.9%
- PERCENT BINDING CAPACITY of *Cs ([3]; pH 3): 100 ± 0.9%
- PERCENT BINDING CAPACITY of *Cs ([3]; pH 5): 97 ± 0.9%
- PERCENT BINDING CAPACITY of *Cs ([3]; pH 6): 97 ± 0.9%
- PERCENT BINDING CAPACITY of *Cs ([3]; pH 7): 98 ± 0.9%
